Experimental data published in PubChem BioAssay AID760 (NMMLSC, 2007).
The list shows a part of the results, in another mix than the full data. Active and inactive are the calls of the source.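 How the source made its calls: active means GTP binding activity at least 20 points away from 100%, either lowered or raised; inconclusive means signal likely due to the compound's own green fluorescence; inactive means the rest.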

Target: Ras-related protein Rab-2A (Canis lupus familiaris) (UniProt P61105)
Assay: Rab2 wt fluorescent GTP binding changes, either direction – biochemical, dog, bead-based flow cytometry, multiplex, primary screen (AID 760);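 further: 0% = beads with excess unlabeled GTP and 100% = no-compound control corrected for plate trend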
Details: GST-Rab2 wt beads, Bodipy-GTP binding, at 10 µM

Row | SMILES | GTP binding activity
1 | CN(C)c1ccc(C(=O)NCC2(N3CCCCC3)CCCCC2)cc1 | inactive: 95%
2 | CCN1CCC(Nc2cccc(F)c2)CC1 | inactive: 100%
3 | Fc1ccccc1NC1CCN(Cc2ccccc2)CC1 | inactive: 104%
4 | COc1cc(OC)cc(C(=O)NCC2(N3CCOCC3)CCCCC2)c1 | inactive: 92%
5 | CC(C)(C)OC(=O)N1CCC(Nc2ccccc2)CC1 | inactive: 100%
6 | CCOc1ncccc1C(=O)NCC1(N2CCOCC2)CCCCC1 | inactive: 101%
7 | O=C(OC1CN2CCC1CC2)C1c2ccccc2C=Cc2ccccc21 (centres undefined) | inactive: 96%
8 | N/C(=N\O)c1c(N)no[n+]1[O-] | inactive: 101%
9 | COc1ccc(C(=O)NCC2(N3CCOCC3)CCCCC2)cc1OC | inactive: 99%
10 | c1ccc(CN2CCC(Nc3ccccc3)CC2)cc1 | inactive: 97%
11 | N#Cc1ccc(C(=O)NCC2(N3CCCCC3)CCCCC2)cc1 | inactive: 101%
12 | COc1ccc(NC2CCN(C(=O)OC(C)(C)C)CC2)cc1 | inactive: 98%
13 | CN1CCN(CCOC(=O)C(O)(c2ccccc2)c2ccccc2)CC1 | inactive: 101%
14 | O=C(NCC1(N2CCOCC2)CCCCC1)c1cc(=O)[nH]c2ccccc12 | inactive: 100%
15 | O=C(NCC1(N2CCCCC2)CCCCC1)c1cccc([N+](=O)[O-])c1 | inactive: 100%
16 | N#CC1(Nc2ccccc2)CCN(CCc2ccccc2)CC1 | inactive: 106%
17 | CN(C)c1cccc(C(=O)NCC2(N3CCCCC3)CCCCC2)c1 | inactive: 98%
18 | COc1ccc(CN(CCCl)CCCl)cc1Cl | inactive: 96%
19 | CC(C)c1ccc(NC2CCN(C(=O)OC(C)(C)C)CC2)cc1 | inactive: 95%
20 | CCOC(=O)N1CCC(Nc2ccc(OC)cc2)CC1 | inactive: 99%
21 | O=C(OC1CN2CCC1CC2)C1c2ccccc2Oc2ccccc21 (centres undefined) | inactive: 99%
22 | O=C(NCC1(N2CCOCC2)CCCCC1)c1cc2ccccc2o1 | inactive: 101%
23 | COc1ccc(C(=O)NCC2(N3CCCCC3)CCCCC2)c(OC)c1OC | inactive: 98%
24 | COc1ccc(NC2CCN(CCc3ccccc3)CC2)c(OC)c1 | inactive: 98%
